Assays:
[1] = target: T. brucei DHFR (Tsf-TbDHFR-TS) (Trypanosoma brucei brucei, UniProt Q27783); assay: Inhibition of DHFR activity of recombinant Tsf-TbDHFR-TS (spectrophotometric, 340 nm)
[2] = target: Human TS; conditions: ref Shih et al. [11]; cited from earlier work

Sequences of proteins named here, by UniProt entry; tags and fusion partners are left off. A change or cut given only in a name is not applied to a line headed by its entry.
UniProt Q27783: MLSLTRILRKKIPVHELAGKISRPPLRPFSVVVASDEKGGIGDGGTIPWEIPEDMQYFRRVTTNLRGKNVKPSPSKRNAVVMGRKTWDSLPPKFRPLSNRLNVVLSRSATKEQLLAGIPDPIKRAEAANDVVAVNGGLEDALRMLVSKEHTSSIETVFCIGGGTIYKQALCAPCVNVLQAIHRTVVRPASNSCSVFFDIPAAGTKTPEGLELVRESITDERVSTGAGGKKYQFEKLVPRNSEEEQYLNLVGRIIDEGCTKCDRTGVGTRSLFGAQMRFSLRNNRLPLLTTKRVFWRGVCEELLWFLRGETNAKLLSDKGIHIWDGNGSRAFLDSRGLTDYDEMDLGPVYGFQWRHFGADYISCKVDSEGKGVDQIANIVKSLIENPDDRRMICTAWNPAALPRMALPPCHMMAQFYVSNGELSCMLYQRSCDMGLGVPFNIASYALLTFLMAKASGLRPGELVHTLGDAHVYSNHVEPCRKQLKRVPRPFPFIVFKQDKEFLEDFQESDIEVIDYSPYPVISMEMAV

Compound	Ki ([1]; DHFR Ki (competitive inhibition, global fit, Fig 5), varying DHF, fixed amounts of inhibitor, non-linear regression)	Ki ([1]; DHFR Ki, T. brucei, recombinant TbDHFR-TS, from IC50 (Cheng-Prusoff) or Morrison equation for tight binders, Inactive ** = no inhibition at 100 μM)	Ki [2]
CCc1nc(N)nc(N)c1-c1ccc(Cl)cc1 [Pyrimethamine, pyrimethamine]	17.6 ± 2.3 nM	6.35 ± 0.49 nM	–
Nc1nc2[nH]cc(CCc3ccc(C(=O)N[C@@H](CCC(=O)O)C(=O)O)cc3)c2c(=O)[nH]1 [Pemetrexed, pemetrexed]	–	–	110 nM

Reference: paper PMC4866688, “Trypanosoma brucei DHFR-TS Revisited: Characterisation of a Bifunctional and Highly Unstable Recombinant Dihydrofolate Reductase-Thymidylate Synthase” (PLoS Neglected Tropical Diseases, 2016)
